{
  "source": "patent US20120283303A1",
  "about": "“USE OF N-AMINOIMIDAZOLE CYTOPROTECTIVE COMPOUNDS FOR TREATING CELL DEATH AND/OR GSK-3 MEDIATED DISEASES” (K.U.LEUVEN RESEARCH AND DEVELOPMENT, priority 2006, published 2012)",
  "tested_on": "Peripheral blood mononuclear cells (PBMCs)",
  "assay": "PBMC survival (viable cell count, trypan blue exclusion)",
  "assay_type": "cell-based, human",
  "conditions": "IL-2 10 U/ml; stimulated and non stimulated cells",
  "procedure": "Peripheral blood mononuclear cells (PBMCs) from healthy donors were isolated by density centrifugation (Lymphoprep; Nycomed Pharma, AS Diagnostics, Oslo, Norway). For the “non-stimulated” conditions (NS) the cells were cultivated at a density of 1,750,000 cells per ml in RPMI-1640 supplemented with 2 mM L-glutamine, 15% FCS and 0.1% NaHCO3 for 3 days. The cells for the “stimulated” condition were treated with 2 μg/ml phytohemagglutin (PHA) (Sigma Chemical Co., Bornem, Belgium) and 5 U/ml of recombinant human IL-2 (Roche, Brussels, Belgium) for 3 days. At day 0 of the experiment, the NS and activated cells (PHA-stimulated blasts) were washed with PBS and were pelleted by centrifugation. The cells were re-suspended in the above described medium and equal number of cells were distributed over the 75 cm^2 culture flasks at a density of approximately 1×10^6 cells per ml and were supplemented with the required quantities of NAIM derivative in the presence or absence of IL-2. The number of viable cells was counted based on the trypan blue exclusion method. The evolution of the number of cells was followed over a period of approximately 2 weeks.",
  "data": [
    {"substance": "IL-2: recombinant human IL-2 (Roche, Brussels, Belgium)", "values": [
      {"measurement": "PBMC cell count, IL-2 only", "result": "increased"}
    ]}
  ]
}
